The results in this text go back to patent US20200317769A1 (published 2020).

Amino acid sequences for entries named in this document (tags omitted).
UniProt P01375, whole entry: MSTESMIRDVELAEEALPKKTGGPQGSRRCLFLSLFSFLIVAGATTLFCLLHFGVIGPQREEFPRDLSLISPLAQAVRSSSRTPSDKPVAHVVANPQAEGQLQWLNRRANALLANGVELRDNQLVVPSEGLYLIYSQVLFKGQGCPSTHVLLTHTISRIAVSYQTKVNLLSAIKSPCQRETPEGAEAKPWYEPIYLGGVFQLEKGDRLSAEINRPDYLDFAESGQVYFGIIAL

The assay deals with non-cleavable transmembrane form of human TNF-alpha on CHO cells (mTNF-alpha-CHO) (human, UniProt P01375 1-233). The assay can be described thus: cell-based or functional assay.

B1: infliximab (antibody, V domains shown)
VH: EVKLEESGGGLVQPGGSMKLSCVASGFIFSNHWMNWVRQSPEKGLEWVAEIRSKSINSATHYAESVKGRFTISRDDSKSAVYLQMTDLRTEDTGVYYCSRNYYGSTYDYWGQGTTLTVSS
VL: DILLTQSPAILSVSPGERVSFSCRASQFVGSSIHWYQQRTNGSPRLLIKYASESMSGIPSRFSGSGSGTDFTLSINTVESEDIADYYCQQSHSWPFTFGSGTNLEVKR
As for B1, the “mTNF-alpha neutralisation EC50 (nM), NF-kB/SEAP HEK-293 cellular reporter assay” value came to 3.79 nM.
